## Antibody variant affinities, Ab-91 heavy chain, assay 2

The target is the same throughout: PDVDLGDISGINAS, from the HR2 region of SARS-CoV-2 spike.

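The parent was found by panning a naive human phage display library on the peptide. Library AAYL51 holds single substitutions and randomly drawn double and triple substitutions in the CDRs. The assay is AlphaSeq: two haploid yeast populations carry antibody and antigen on their surface. Binding brings cells together so that they mate, and sequencing counts the barcode pairs among the diploids. Read counts were normalised to the haploid input and turned into Kd by a linear fit to BCL2-family pairs of known affinity, for each replicate. There are three technical replicates.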

Parent scFv Ab-91: VL joined to VH by the linker GGGGSGGGGSGGGGS. Changes lie in the heavy chain CDRs alone.
VL: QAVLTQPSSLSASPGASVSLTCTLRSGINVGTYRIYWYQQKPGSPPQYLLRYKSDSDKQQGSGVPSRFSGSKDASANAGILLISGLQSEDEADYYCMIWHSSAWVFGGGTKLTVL
VH: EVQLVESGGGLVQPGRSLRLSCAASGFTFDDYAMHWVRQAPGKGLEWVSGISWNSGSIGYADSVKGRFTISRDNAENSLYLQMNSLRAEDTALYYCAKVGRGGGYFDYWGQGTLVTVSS

Positions count from residue 1 of the parent VH; D62V puts V in place of D.
Kd is apparent (estimated from mating counts) and averaged on the log scale over replicates with a signal. Smaller is tighter.
An entry "not detected" has no value in the source: the pair was not observed among the diploids in any replicate. This suggests poor binding but is not conclusive.
Parent in this assay: reference entry 72 nM, copy in this library 7.5 nM.
As a blank, each scFv also met three strains without target: over library AAYL51, 21% of these pairings were detected, typically at 34 µM and seldom below 1.8 µM. For each scFv, signals with the empty controls are counted beside the result.

changes	Kd	detected	empty controls
D62V+G104R+F106K	5.1 µM	1 of 3	0 of 9
S57L+Y60L+G100T	31 nM	3 of 3	0 of 9
G26V+D31Y	300 µM	2 of 3	3 of 9
N54W+V99A+G104A	57 µM	2 of 3	2 of 9
F27N+G103W+Y108I	not detected	0 of 3	3 of 9
A33E+S55K+K65N	not detected	0 of 3	0 of 9
T28I+G50H+V99E	65 µM	3 of 3	5 of 9
G26P+I58N+G104Q	not detected	0 of 3	0 of 9
N54P+I58Q+V99N	not detected	0 of 3	0 of 9
A33L+Y60G+K65S	76 µM	1 of 3	1 of 9
F27P+I58A+V64P	130 µM	1 of 3	2 of 9
I51T+G56A+G59R	not detected	0 of 3	0 of 9
F27A+S52D+R101L	8.7 µM	1 of 3	0 of 9
T28F+I58M+A61E	390 nM	3 of 3	0 of 9
A61L+V99M+G104S	not detected	0 of 3	2 of 9
Y32N+S52T+G102A	8.0 µM	1 of 3	4 of 9
G26S+H35N+S55D	not detected	0 of 3	1 of 9
F27H+M34H	not detected	0 of 3	0 of 9
D31W+W53P+V99F	not detected	0 of 3	0 of 9
S55H+S63C+G102M	11 µM	1 of 3	2 of 9
T28E+G50F+Y60Q	not detected	0 of 3	3 of 9
S55D+Y60L+A61E	not detected	0 of 3	0 of 9
N54K+S55Q+S57A	not detected	0 of 3	0 of 9
G26S+S57V+G103A	43 µM	1 of 3	4 of 9
Y32G+G50V	not detected	0 of 3	1 of 9
T28N+A61H+Y105R	not detected	0 of 3	0 of 9
F27D+H35Q+R101L	90 µM	2 of 3	3 of 9
G59T+K65T+Y108S	55 µM	2 of 3	5 of 9
D30G+Y60H+V99L	not detected	0 of 3	0 of 9
F27V+A61K+Y108L	170 µM	3 of 3	5 of 9
W53Y+S57D	not detected	0 of 3	0 of 9
G26Y+D31E+I58T	15 nM	1 of 3	1 of 9
A33P+M34G+N54P	12 µM	3 of 3	1 of 9
R101T+G103W+F106E	3.8 µM	1 of 3	2 of 9
Y32M+N54S+G56W	3.3 µM	1 of 3	1 of 9
H35E+G50N+D62F	not detected	0 of 3	0 of 9
G26C+W53Y+I58Y	not detected	0 of 3	1 of 9
Y32I+S52C+N54A	290 µM	1 of 3	0 of 9
T28Y+Y32P+A33R	not detected	0 of 3	3 of 9
D62I+Y105H	not detected	0 of 3	1 of 9
G26N+S52R+G103T	16 µM	1 of 3	1 of 9
G26W+G56S+G102E	2.4 µM	1 of 3	5 of 9
G50A+D62R	330 µM	1 of 3	5 of 9
D31P+W53L+G103H	not detected	0 of 3	0 of 9
G26E+A61S	not detected	0 of 3	0 of 9
F27G+G59D+D107R	11 µM	3 of 3	7 of 9
A33L+W53K+G103V	41 µM	3 of 3	6 of 9
G50E+D62L	not detected	0 of 3	0 of 9
F29H+W53K+F106D	not detected	0 of 3	0 of 9
A33E+N54F+D62K	63 µM	1 of 3	4 of 9
G50A+S52P+K65W	not detected	0 of 3	0 of 9
Y32D+K65C+R101N	590 nM	2 of 3	0 of 9
T28E+W53Y+R101G	130 nM	3 of 3	7 of 9
H35T+G50E+D107G	not detected	0 of 3	0 of 9
G50F+N54G+G59L	not detected	0 of 3	1 of 9
N54T+G56M+V64K	5.0 µM	2 of 3	2 of 9
T28K+F29I+H35R	not detected	0 of 3	0 of 9
Y32M+D62L+S63N	55 µM	2 of 3	2 of 9
H35I+Y60C+Y105W	not detected	0 of 3	5 of 9
Y32K+I51M+S63P	55 µM	2 of 3	1 of 9
G26V+D31Y+A61R	not detected	0 of 3	0 of 9
D31R+F106W	21 nM	3 of 3	7 of 9
G59D+V64R+V99C	190 µM	2 of 3	4 of 9
G26M+S55L+A61L	7.1 µM	1 of 3	0 of 9
M34C+R101P	not detected	0 of 3	1 of 9
Y32Q+R101Q+G104Q	not detected	0 of 3	0 of 9
F27L+Y60H+G100N	not detected	0 of 3	1 of 9

From the AlphaSeq antibody data of Engelhart et al. 2022 (doi:10.1038/s41597-022-01779-4), copy in the FLAb collection.